Laboratory results reported in patent publication US11564964B2, “Compositions and methods for the treatment of coronavirus infection” (priority 2021, dated 2023).

Experiment: MTT cytotoxicity assay
Type: cell-based
Conditions: African green monkey, Vero E6 cells, read-out: cytotoxicity IC50 against Vero E6 cells
Experimental: Vero-E6 cells with the previously reported (MTT) method^34 were used to test the cytotoxic activity of the test compounds and extracts. In brief, the cells were plated in 96-well plates and incubated for 24 h at 37° C. in 5% CO2 (100 μL/well at a density of 3×10^5 cells/mL). The cells were then treated with different concentrations of extracts/the tested compounds in triplicates. The supernatant was discarded after another 24 h, and cell monolayers were washed three times with sterile 1× PBS. MTT solution was added to each well and then incubated at 37° C. for 4 h. The produced formazan crystals were dissolved with 200 μL of acidified isopropanol (0.04 M HCl in absolute isopropanol=0.073 mL HCL in 50 mL isopropanol). Thereafter, the absorbance of formazan solutions was measured at λmax 540 nm using a multi-well plate reader. The following equation was applied to calculate the percentage of cytotoxicity compared to the untreated cells:
[formula] The produced plot of % cytotoxicity versus sample concentrations was then used to calculate the IC50s. Viral Inhibitory Concentration 50 (IC50) Determination

C=C1C(=O)O[C@@H]2/C=C(\CO)CC/C=C(\C)C[C@H](OC(=O)C(=C)[C@@H](O)CO)[C@@H]12 [cnicin]
IC50 at 24 h: > 50 µg/mL
